Values of other authors, collected in patent US12403100B2, “Natural combination products and methods for regulation of total blood cholesterol” (priority 2018, dated 2025).

Conditions: Table 1

CC(C)c1c(C(=O)Nc2ccccc2)c(-c2ccccc2)c(-c2ccc(F)cc2)n1CC[C@@H](O)C[C@@H](O)CC(=O)O [Atorvastatin]
Lipo/hydrophilicity: Lipophilic
